Laboratory results: patent US4701521A, “Method of effecting cellular uptake of molecules” (The Trustees of Boston University, priority 1979, dated 1987)

System: L929 mouse fibroblast cells
Assay: Cellular uptake of ^125 I-HSA and its conjugates by L929 monolayers
Format: cell-based

Substance	Uptake In 60 Min. (Example 3, Experiment 1, 50 μg/ml ^125 I-HSA free or conjugated, 37° C., serum-free) [μg/mg cell protein]	Uptake In 60 Min. (Example 3, Experiment 1, + 10 μg/ml free PLL (MW 6700)) [μg/mg cell protein]	Uptake In 60 Min. (Example 3, Experiment 2, 50 μg/ml, 37° C., serum-free) [μg/mg cell protein]	Uptake In 60 Min. (Example 3, Experiment 2, + non-labeled HSA-PLL (50 μg/ml)) [μg/mg cell protein]	Uptake in 60 min. (Example 4, unconjugated HSA) [μg/mg cell protein]	Uptake in 60 min. (Example 5, 50 μg/ml) [μg/mg cell protein]	Enhancement (multiple of control) (Example 12, 50 μg/ml) [×]	Uptake, 60-1 (net uptake) (Example 12, 50 μg/ml) [CPM/mg cell protein]	Uptake, 1 min. (Example 12, 50 μg/ml) [CPM/mg cell protein]	Uptake, 60 min. (Example 12, 50 μg/ml) [CPM/mg cell protein]
human serum albumin [HSA]	0.41	0.41	0.60	0.77	0.6	0.44	1	226.7	164.9	391.6
^125 I-HSA-PLL-CARB.: HSA-PLL conjugate treated with potassium cyanate to carbamylate the amino groups of PLL	–	–	–	–	–	0.51	–	–	–	–
